For the assay, the target named is Mu-type opioid receptor (Rattus norvegicus, UniProt P33535). The assay is described as follows: Inhibition of [3H]diprenorphine binding to rat Opioid receptor mu 1 expressed in C6 cells. In kind it is cell-based. Put shortly:
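Competition binding with [3H]diprenorphine on rat MOR or DOR expressed in C6 cells and human KOR in CHO cells. Mean of three experiments, each in duplicate.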

The chains behind the UniProt entries cited, without tags or fusion partners.
UniProt P33535, whole entry: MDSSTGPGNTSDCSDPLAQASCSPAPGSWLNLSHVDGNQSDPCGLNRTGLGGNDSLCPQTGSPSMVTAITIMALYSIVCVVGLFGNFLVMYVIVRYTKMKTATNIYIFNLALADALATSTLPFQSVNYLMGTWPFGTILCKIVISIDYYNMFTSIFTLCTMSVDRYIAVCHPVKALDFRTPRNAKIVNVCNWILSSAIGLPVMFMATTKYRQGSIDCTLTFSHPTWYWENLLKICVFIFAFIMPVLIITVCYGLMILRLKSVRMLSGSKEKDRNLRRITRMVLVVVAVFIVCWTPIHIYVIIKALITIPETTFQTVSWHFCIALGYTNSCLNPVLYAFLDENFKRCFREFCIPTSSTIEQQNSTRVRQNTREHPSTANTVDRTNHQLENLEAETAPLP

For orientation: Ki means the equilibrium dissociation constant of an inhibitor or competing ligand from its target. Low readings indicate higher affinity, high ones lower affinity.

For the molecule `Oc1ccc2c3c1O[C@H]1c4[nH]c5c(c4C[C@@]4(O)[C@@H](C2)N(CC2CC2)CC[C@]314)C[C@@]1(O)[C@H]2Cc3ccc(O)c4c3[C@@]1(CCN2CC1CC1)[C@H]5O4` [NORBINALTORPHIMINE], the Ki is 1.2 nM.

The values above are taken from ChEMBL document CHEMBL1142711 (J Med Chem, 2005).
